Data: publication PMC7673040 (Nature Communications, 2020)

B1: ribosome-nascent chain complex bearing the first ~90 amino acids of pPL(ss), labelled with BODIPY-FL on the nascent chain (complex)
chain: MDSKGSSQKGSKLALALLLLLLALALCQGVVSTPVCPNGPGNCQVSLRDLFDRAVMVSHYIHDLSSEMFNEFDKRYAQGKGFITMALNSCHTV
modifications: axial-trans-cyclooct-2-en-L-Lysine (TCOK) at an amber codon one residue upstream of the signal sequence, labelled with tetrazine-conjugated BODIPY-FL (BDP)
B2: ribosome-nascent chain complex bearing the first ~90 amino acids of pPL(ssmt), labelled with BODIPY-FL on the nascent chain (complex)
chain: MDSKGSSQKGSKLLLRRVVSNLLLCQGVVSTPVCPNGPGNCQVSLRDLFDRAVMVSHYIHDLSSEMFNEFDKRYAQGKGFITMALNSCHTV
modifications: axial-trans-cyclooct-2-en-L-Lysine (TCOK) at an amber codon one residue upstream of the signal sequence, labelled with tetrazine-conjugated BODIPY-FL (BDP)

Target: human nascent polypeptide-associated complex (NAC), unlabeled (human, UniProt Q13765 1-215; P20290-2 1-162)
Test: other fluorescence titration; equilibrium FRET titrations of SRP^TMR into 1 nM RNC^BDP with unlabeled NAC premixed (0-400 nM for RNC(ss), 0-62.5 nM for RNC(ssmt)); global fit to the anti-cooperative co-binding model, Eq. (8); 25 °C, Assay buffer with 1 mg/mL BSA
Conditions: both partners purified

Binder | Kd
B1 | 1.4 nM
B2 | 1.2 nM
